Series [1] in a line: Toxicity in OX1R knock out mouse assessed as increase in conditioned place aversion at 1 to 4 mg/kg, sc. Particulars: in vivo.
Series [2] can be described thus: Toxicity in mouse assessed as increase in conditioned place aversion at 1 to 4 mg/kg, sc. Particulars: in vivo.

`CN(C(=O)Cc1ccc(Cl)c(Cl)c1)C1CCCCC1N1CCCC1` (configuration not stated): the Activity entry in series [1] and in series [2] was “Toxic” throughout.

These data come from ChEMBL document CHEMBL4725319, “Discovery of attenuation effect of orexin 1 receptor to aversion of nalfurafine: Synthesis and evaluation of D-nor-nalfurafine derivatives and analyses of the three active conformations of nalfurafine” (Bioorg Med Chem Lett, 2020).
